# Values quoted from earlier work in PMC8339067 (NPJ Breast Cancer, 2021).
# Test system: HER2+ advanced breast cancer
# Design: method as in PMID 33002436
# Conditions: control group, previously treated with a taxane and trastuzumab; cited from earlier work
substance,measurement,value
T-DM1 plus placebo: Control group of KATE2: antibody-drug conjugate T-DM1 given with placebo,Median PFS,6.8 months
